Results from patent US9120761B2, “Selective FAK inhibitors” (priority 2011, dated 2015).

Sequences of proteins named here, by UniProt entry; tags and fusion partners are left off.
UniProt Q05397, whole entry: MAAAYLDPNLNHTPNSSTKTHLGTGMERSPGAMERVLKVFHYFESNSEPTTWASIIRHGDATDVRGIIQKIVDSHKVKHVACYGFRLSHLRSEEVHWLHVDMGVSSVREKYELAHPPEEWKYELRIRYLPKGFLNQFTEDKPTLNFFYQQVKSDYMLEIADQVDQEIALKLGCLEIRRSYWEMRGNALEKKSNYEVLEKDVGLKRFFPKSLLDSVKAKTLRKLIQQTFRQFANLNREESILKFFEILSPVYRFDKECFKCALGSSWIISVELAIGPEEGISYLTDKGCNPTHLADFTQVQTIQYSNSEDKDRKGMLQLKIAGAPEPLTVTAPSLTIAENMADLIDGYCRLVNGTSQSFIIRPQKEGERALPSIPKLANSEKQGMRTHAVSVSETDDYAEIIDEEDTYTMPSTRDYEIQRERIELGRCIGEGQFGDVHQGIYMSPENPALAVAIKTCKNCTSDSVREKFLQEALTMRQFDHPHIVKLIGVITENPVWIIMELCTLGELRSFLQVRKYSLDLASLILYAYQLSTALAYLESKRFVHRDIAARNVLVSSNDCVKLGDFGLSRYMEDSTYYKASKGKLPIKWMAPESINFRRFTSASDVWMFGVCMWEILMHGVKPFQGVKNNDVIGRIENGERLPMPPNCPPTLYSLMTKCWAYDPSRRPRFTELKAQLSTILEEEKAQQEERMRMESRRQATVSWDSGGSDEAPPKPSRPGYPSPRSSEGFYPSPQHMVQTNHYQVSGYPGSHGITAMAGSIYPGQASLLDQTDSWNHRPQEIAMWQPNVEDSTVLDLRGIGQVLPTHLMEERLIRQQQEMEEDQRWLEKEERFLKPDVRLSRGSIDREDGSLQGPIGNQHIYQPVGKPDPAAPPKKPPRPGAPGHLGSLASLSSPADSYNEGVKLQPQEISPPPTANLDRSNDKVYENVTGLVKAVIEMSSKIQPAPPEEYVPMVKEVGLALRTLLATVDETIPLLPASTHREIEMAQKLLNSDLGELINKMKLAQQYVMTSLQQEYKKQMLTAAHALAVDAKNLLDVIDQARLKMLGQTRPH

Target: phosphorylation of Y397-FAK in MDA-231-LNA cells (Homo sapiens (Human), UniProt Q05397)
Assay type: cell-based
Conditions: 1 hour treatment, pFAK-397 levels

Structure (SMILES)	IC50 [nM]
COc1cc(N2CCNCC2)ccc1Nc1ncc(C(F)(F)F)c(CCc2ccccc2CC(N)=O)n1 [Compound 1, 2-(2-(2-(2-((2-Methoxy-4-(piperazin-1-yl)phenyl)amino)-5-(trifluoromethyl)pyrimidin-4-yl)ethyl)phenyl)acetamide]	9
COc1cc(C2CCNCC2)ccc1Nc1ncc(C(F)(F)F)c(CCc2ccccc2CC(N)=O)n1 [Compound 2, 2-(2-(2-(2-((2-Methoxy-4-(piperidin-4-yl)phenyl)amino)-5-(trifluoromethyl)pyrimidin-4-yl)ethyl)phenyl)acetamide]	12
COc1cc(C2CCN(C)CC2)ccc1Nc1ncc(C(F)(F)F)c(CCc2ccccc2CC(N)=O)n1 [Compound 3, 2-(2-(2-(2-((2-Methoxy-4-(1-methylpiperidin-4-yl)phenyl)amino)-5-(trifluoromethyl)pyrimidin-4-yl)ethyl)phenyl)acetamide]	7
CCN1CCC(c2ccc(Nc3ncc(C(F)(F)F)c(CCc4ccccc4CC(N)=O)n3)c(OC)c2)CC1 [Compound 4, 2-(2-(2-(2-((4-(1-Ethylpiperidin-4-yl)-2-methoxyphenyl)amino)-5-(trifluoromethyl)pyrimidin-4-yl)ethyl)phenyl) acetamide]	13
COc1cc(C2CCN(C)CC2)ccc1Nc1ncc(C(F)(F)F)c(CCc2cccc(C(N)=O)c2)n1 [Compound 6, 3-(2-(2-((2-Methoxy-4-(1-methylpiperidin-4-yl)phenyl)amino)-5-(trifluoromethyl)pyrimidin-4-yl)ethyl)benzamide]	264
NC(=O)Cc1ccccc1CCc1nc(Nc2ccc(C3CCNCC3)cc2OC(F)(F)F)ncc1C(F)(F)F [Compound 10, 2-(2-(2-(2-((4-(Piperidin-4-yl)-2-(trifluoromethoxy)phenyl)amino)-5-(trifluoromethyl)pyrimidin-4-yl)ethyl)phenyl)acetamide]	114
CN1CCC(c2ccc(Nc3ncc(C(F)(F)F)c(CCc4ccccc4CC(N)=O)n3)c(OC(F)(F)F)c2)CC1 [Compound 11, 2-(2-(2-(2-((4-(1-Methylpiperidin-4-yl)-2-(trifluoromethoxy)phenyl)amino)-5-(trifluoromethyl)pyrimidin-4-yl)ethyl)phenyl)acetamide]	16
CN1CCC(c2ccc(Nc3ncc(C(F)(F)F)c(CCc4ccccc4CC(N)=O)n3)c(F)c2)CC1 [Compound 13, 2-(2-(2-(2-((2-Fluoro-4-(1-methylpiperidin-4-yl)phenyl)amino)-5-(trifluoromethyl)pyrimidin-4-yl)ethyl)phenyl)acetamide]	14
